Results from PubChem BioAssay AID1259399 (Fisher Drug Discovery Resource Center, 2018).
Where “and” joins values, the source holds several entries; their conditions need not be identical. Equal values may be shown once. Only a part is listed here, and it is no random draw. Calls of active or inactive are those of the source. Cut-off read from the data, not from the text of the source: active = inhibition above about 40%; inactive = the rest.

The chains behind the UniProt entries cited, without tags or fusion partners.
UniProt Q8C6L5, whole entry, looked up: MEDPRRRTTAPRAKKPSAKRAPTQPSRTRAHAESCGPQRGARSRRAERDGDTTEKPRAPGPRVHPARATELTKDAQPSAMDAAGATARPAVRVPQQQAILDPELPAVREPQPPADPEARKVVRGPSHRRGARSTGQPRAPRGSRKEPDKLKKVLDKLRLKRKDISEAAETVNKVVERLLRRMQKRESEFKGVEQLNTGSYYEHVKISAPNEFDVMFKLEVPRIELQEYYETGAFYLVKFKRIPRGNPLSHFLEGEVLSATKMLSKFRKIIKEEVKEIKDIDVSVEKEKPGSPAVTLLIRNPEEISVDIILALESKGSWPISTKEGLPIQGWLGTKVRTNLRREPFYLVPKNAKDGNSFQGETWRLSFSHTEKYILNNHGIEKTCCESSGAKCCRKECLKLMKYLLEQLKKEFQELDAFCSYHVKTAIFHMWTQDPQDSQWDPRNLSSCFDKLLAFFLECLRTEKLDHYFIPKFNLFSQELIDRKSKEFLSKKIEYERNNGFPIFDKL

Target: Cyclic GMP-AMP synthase (Mus musculus) (UniProt Q8C6L5)
Test: inhibition of Mus musculus cGAS, primary biochemical chemiluminescence screen (AID 1259399);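 note: 0% = negative control wells and 100% = reference inhibitor with no enzyme activity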
Settings: recombinant cGAS, Kinase-Glo ATP depletion luminescence; at 12.5 µM; active compounds read high

SMILES | inhibition
BrC1CSc2nc3ccccc3n2C1c1ccccc1 (stereo not drawn) | inactive: -1.45%
O=[N+]([O-])c1ccc(-c2csc(NP3(=O)C=C(c4ccccc4)OC(c4ccccc4)=C3)n2)cc1 | inactive: -7.35%
CN1CC(=O)NC1=NP(=O)(OCc1ccccc1)OCc1ccccc1 | inactive: -4.15%
CN(CCCl)Cc1cc(Cl)c(NC2=NCCN2)c(Cl)c1 | inactive: -3.11%
ClCCNC1C2CC3CC(C2)CC1C3 (stereo not drawn) | inactive: -3.42%
CN(C(=O)Cc1ccc(Cl)c(Cl)c1)[C@@H]1CC[C@]2(CCCO2)C[C@H]1N1CCCC1 | inactive: -4.06%
COc1cc(-n2cnnn2)ccc1-n1cnnn1 | inactive: -2.31%
O=P(Nc1nccs1)(c1ccccc1)c1nc2ccccc2s1 (stereo not drawn) | inactive: 0.949%
COc1cccc(OP(=NC(=S)N2CCOCC2)(C(C)(C)C)C(C)(C)C)c1 | inactive: -3.66%
CN(C(=O)Cc1ccccc1)[C@@H]1CC[C@]2(CCCO2)C[C@H]1N1CCCC1 | inactive: -3.61%
CCOP1(=S)c2c(C)nn(-c3ccccc3)c2N=C(c2ccc(F)cc2)N1C (stereo not drawn) | inactive: -8.04%
N#CCOC(=O)C(O)(c1ccccc1)c1ccccc1 | inactive: -1.17%
O=P1(Nc2nc(-c3ccccc3)cs2)C=C(c2ccccc2)OC(c2ccccc2)=C1 | inactive: -4.22%
Nc1nonc1OCCOc1nonc1N | inactive: -1.88%
CCCOP(=O)(OCCC)O/C(C)=C/SC#N | inactive: -6.98%
N#Cc1ccc(-c2csc(NP3(=O)C=C(c4ccccc4)OC(c4ccccc4)=C3)n2)cc1 | inactive: -5.74%
O=P(Nc1nccs1)(c1ccc(Br)cc1)c1ccc(Br)cc1 | inactive: -2.06%

SMILES | inhibition
CCOP1(=S)c2c(C)nn(-c3ccccc3)c2N=C(c2ccccc2F)N1C (stereo not drawn) | inactive: -7.32%
Cc1ccc(NC(=O)COC(=O)C(C)(O)c2cccc(F)c2)c(C)c1 (stereo not drawn) | inactive: -10.4%
CCN(CC)C1=NP(=O)(c2ccccc2)NC(c2ccccc2)=C1C#N (stereo not drawn) | inactive: -5.93%
Cc1c2non([O-])c-2c(C)[n+](=O)[n+]1[O-] | inactive: -6.94%
O=P(O)(O)F | inactive: -3.47%
COP1(=S)c2c(C)nn(-c3ccccc3)c2N=C(c2ccc(F)cc2)N1C (stereo not drawn) | inactive: -5.55%
COc1cc(Br)c([N+](=O)[O-])nc1[N+](=O)[O-] | inactive: 22.7%
CN(C(=O)Cc1ccc(Cl)c(Cl)c1)[C@H]1CCCC[C@@H]1N1CCCC1 | inactive: -1.19% and inactive: -2.76%
O=P(C=C(Cl)c1ccccc1)(C=C(Cl)c1ccccc1)Nc1nncs1 | inactive: -3.26%
CN(C(=O)Cc1ccc(Cl)c(Cl)c1)[C@@H]1CCCC[C@@H]1N1CCCC1 | inactive: -5.1%
O=P1(Nc2nncs2)C=C(c2ccccc2)SC(c2ccccc2)=C1 | inactive: -3.55%
Cc1c([N+](=O)[O-])c([N+](=O)[O-])nn1CC(=O)Nc1ccc([N+](=O)[O-])cc1Cl | inactive: -8.25%
O=P(Nc1nccs1)(c1ccccc1)c1ccccc1 | inactive: -6.9%
O=P1(Nc2nc(-c3ccc(F)cc3)cs2)C=C(c2ccccc2)OC(c2ccccc2)=C1 | inactive: -4.12%
BrCC1CN=C(N2CCOCC2)S1 (stereo not drawn) | inactive: -3.33%
CCOC(=O)NC(Sc1nc2ccccc2o1)C(Cl)(Cl)Cl (stereo not drawn) | inactive: -5.47%
